The values below come from publication PMC4499159.

Assay [1] addresses apurinic/apyrimidinic endonuclease 1 (human) (UniProt P27695). As to the kind of experiment: FRET or BRET; FAM-labelled protein (donor, 40 nM, fixed) titrated with the TMR-labelled partner (acceptor); corrected for acceptor signal; E = 1 - Fda/Fd; EC50 is that of the TMR-labelled partner; 50 mM HEPES pH 8.0, 100 mM NaCl, 4 mM DTT; apparent. A general note: BRET reads energy transfer from a luciferase to a nearby fluorophore.

Assay [2] deals with DNA polymerase β (rat) (UniProt P06766). Described as above.
Assay [3] addresses apurinic/apyrimidinic endonuclease 1 (human) (UniProt P27695). As to the kind of experiment: other fluorescence titration; FAM-APE1 (40 nM) premixed with model DNA (160 nM; AP-DNA, incised AP-DNA, gap-DNA or nick-DNA), titrated with the unlabelled partner; binding buffer with 10 mM EDTA; apparent.
Assay [4] concerns the target DNA polymerase β (rat) (UniProt P06766). Nature of the assay: dynamic light scattering; individual proteins or equimolar mixtures at 6 μM; 25 mM HEPES pH 7.5, 100 mM NaCl, 1 mM DTT; 24°C; hydrodynamic radius compared with predicted values.
Assay [5] deals with FAM-APE1 mixed with PARP1 (APE1·PARP1) (human) (UniProt P27695). Nature of the assay: FRET or BRET; FAM-APE1 (40 nM) with XRCC1 or PARP1 added at a 3-fold molar excess, TMR-Polβ at sub-saturating concentrations.
Assay [6] addresses FAM-APE1 mixed with XRCC1 (APE1·XRCC1) (human) (UniProt P27695). Described as above.
Assay [7] concerns the target apurinic/apyrimidinic endonuclease 1 (human) (UniProt P27695). Nature of the assay: other fluorescence titration; FAM-labelled protein at 40 nM (fixed) titrated with the unlabelled partner; 50 mM HEPES pH 8.0, 100 mM NaCl, 4 mM DTT; excitation 485 nm, emission 520 nm; EC50 from a four-parameter logistic fit, an apparent equilibrium dissociation constant.
Assay [8] addresses DNA polymerase β (rat) (UniProt P06766). Described as above.
For assay [9], the target named is X-ray repair cross-complementing protein 1 (human) (UniProt P18887). As to the kind of experiment: other fluorescence titration; TAF-labelled XRCC1 at 40 nM (fixed) titrated with the unlabelled partner; 50 mM HEPES pH 8.0, 100 mM NaCl, 4 mM DTT; EC50 from a four-parameter logistic fit, apparent.
For assay [10] the target is unchanged. As to the kind of experiment: FRET or BRET; FAM-labelled protein (donor, 40 nM, fixed) titrated with the TMR-labelled partner (acceptor); corrected for acceptor signal; E = 1 - Fda/Fd; EC50 is that of the TMR-labelled partner; 50 mM HEPES pH 8.0, 100 mM NaCl, 4 mM DTT; apparent.
For assay [11], the target named is poly(ADP-ribose) polymerase 1 (human) (UniProt P09874). The assay is described as above.
Assay [12] deals with X-ray repair cross-complementing protein 1 (human) (UniProt P18887). Nature of the assay: other fluorescence titration; FAM-XRCC1 at 40 nM premixed with gap-DNA (32-mer 1-nt-gapped DNA) at a 3-fold molar excess, titrated with unlabelled Polβ; binding buffer; apparent.
Assay [13] has as its target poly(ADP-ribose) polymerase 1 (human) (UniProt P09874). As to the kind of experiment: other fluorescence titration; FAM-labelled protein at 40 nM (fixed) titrated with the unlabelled partner; 50 mM HEPES pH 8.0, 100 mM NaCl, 4 mM DTT; excitation 485 nm, emission 520 nm; EC50 from a four-parameter logistic fit, an apparent equilibrium dissociation constant.
For assay [14] the target is unchanged. Nature of the assay: other fluorescence titration; FAM-Polβ or FAM-PARP1 (40 nM) premixed with model DNA (160 nM; incised AP-DNA, gap-DNA or nick-DNA), titrated with the unlabelled partner; binding buffer; apparent.
In assay [15] the target is FAM-labeled human apurinic/apyrimidinic endonuclease 1 (human) (UniProt P27695). Nature of the assay: other fluorescence titration; 40 nM FAM-APE1 premixed with 160 nM AP-DNA, titrated with unlabeled partner; 50 mM HEPES pH 8.0, 100 mM NaCl, 4 mM DTT, 10 mM EDTA; EC50 from four-parameter fit, apparent.
The target is the same in assay [16]. As to the kind of experiment: other fluorescence titration; 40 nM FAM-APE1 premixed with 160 nM gap-DNA, titrated with unlabeled partner; 50 mM HEPES pH 8.0, 100 mM NaCl, 4 mM DTT, 10 mM EDTA; EC50 from four-parameter fit, apparent.
Assay [17] has the same target. As to the kind of experiment: other fluorescence titration; 40 nM FAM-APE1 premixed with 160 nM nick-DNA, titrated with unlabeled partner; 50 mM HEPES pH 8.0, 100 mM NaCl, 4 mM DTT, 10 mM EDTA; EC50 from four-parameter fit, apparent.
For assay [18] the target is unchanged. Nature of the assay: other fluorescence titration; 40 nM FAM-APE1 premixed with 160 nM incised AP-DNA, titrated with unlabeled partner; 50 mM HEPES pH 8.0, 100 mM NaCl, 4 mM DTT, 10 mM EDTA; EC50 from four-parameter fit, apparent.
The target of assay [19] is FAM-labeled human poly(ADP-ribose) polymerase 1 (human) (UniProt P09874). Nature of the assay: other fluorescence titration; 40 nM FAM-labeled protein (FAM-Polβ or FAM-PARP1) premixed with 160 nM gap-DNA, titrated with unlabeled partner; 50 mM HEPES pH 8.0, 100 mM NaCl, 4 mM DTT; EC50 from four-parameter fit, apparent.
Assay [20] shares this target. Nature of the assay: other fluorescence titration; 40 nM FAM-labeled protein (FAM-Polβ or FAM-PARP1) premixed with 160 nM nick-DNA, titrated with unlabeled partner; 50 mM HEPES pH 8.0, 100 mM NaCl, 4 mM DTT; EC50 from four-parameter fit, apparent.

As a reminder, the EC50 is the concentration at which the effect is half-maximal. Usually stoichiometry N stands for the number of molecules, sites or subunits per partner or assembly. For “DNA polymerase β (from UniProt P06766 1-335) (enzyme)”, the EC50 in assay [1] turned out to be 93 nM; in the assay with DNA polymerase β (rat) [2] it was 170 nM; in assay [7] it was 84 nM; with DNA polymerase β (rat) [8], 160 nM. In addition, the FRET efficiency E is 0.16 in assay [1], 0.35 with DNA polymerase β (rat) [2], 0.06 in [5] and 0.08 in [6]. Further, the EC50 with AP-DNA / EC50 without DNA in assay [3] was found to be 1.1. In addition, the EC50 with gap-DNA / EC50 without DNA in assay [3] worked out at 1.3. For the same substance, the EC50 with incised AP-DNA / EC50 without DNA in [3] came to 2. Also, the EC50 with nick-DNA / EC50 without DNA in [3] was 1.8. For the same substance, the stoichiometry N with DNA polymerase β (rat) [4] was 2.

“DNA polymerase β (from UniProt P06766 1-335) (enzyme; other documents disagree on this pair)”: the 50% effective concentration (EC50) in assay [9] was found to be 25 nM; in assay [10], 31 nM; in assay [11], 110 nM; in assay [12], 23 nM; in assay [13], 110 nM. Also, the FRET efficiency E in [10] was 0.41; in assay [11], 0.28. In addition, the EC50 with gap-DNA / EC50 without DNA in [14] was found to be 1. Further, the EC50 with nick-DNA / EC50 without DNA in assay [14] came out at 1.1.

As for “X-ray repair cross-complementing protein 1 (from UniProt P18887 1-633) (natural protein)”, in [1], the FRET efficiency E stood at 0.14. Besides, in assay [3], the EC50 with AP-DNA / EC50 without DNA was 1, the EC50 with gap-DNA / EC50 without DNA is 0.67 and the EC50 with incised AP-DNA / EC50 without DNA amounted to 1.1.

For the substance “rat DNA polymerase β (from UniProt P06766 1-335) (enzyme)”, the EC50 in [15] worked out at 90 nM; in [16] it was 110 nM; in assay [17], 150 nM; in assay [18] it was 170 nM.

Regarding “rat DNA polymerase β (from UniProt P06766 1-335) (enzyme; other documents disagree on this pair)”, the EC50 turned out to be 110 nM in assay [19] and 120 nM in [20].
